These results are taken from PubChem BioAssay AID504651 (National Center for Advancing Translational Sciences (NCATS), 2011).

The chains behind the UniProt entries cited, without tags or fusion partners.
UniProt P21728, whole entry: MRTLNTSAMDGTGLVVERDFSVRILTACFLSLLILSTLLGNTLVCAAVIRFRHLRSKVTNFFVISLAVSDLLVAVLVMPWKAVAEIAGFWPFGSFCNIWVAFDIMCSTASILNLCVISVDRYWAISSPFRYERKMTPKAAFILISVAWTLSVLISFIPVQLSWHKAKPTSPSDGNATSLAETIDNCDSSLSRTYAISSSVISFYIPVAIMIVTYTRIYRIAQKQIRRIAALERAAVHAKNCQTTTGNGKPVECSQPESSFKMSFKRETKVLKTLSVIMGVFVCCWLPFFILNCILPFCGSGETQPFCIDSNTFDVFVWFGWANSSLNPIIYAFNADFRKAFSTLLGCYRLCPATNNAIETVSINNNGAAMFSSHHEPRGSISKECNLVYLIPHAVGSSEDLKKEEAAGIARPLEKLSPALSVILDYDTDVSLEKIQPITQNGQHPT

Where “and” joins values, the source holds several entries; their conditions need not be identical. Identical values can stand only once. The entries are a selection whose mix differs from that of the whole data set. Some results for these compounds are left out of this collection, so the calls shown say nothing about other tests. Calls of active or inactive are those of the source. No stated cut-off is given here; in the data, active means potentiation above about 30%; inactive means the rest.

The experiment has as its target D(1A) dopamine receptor (Homo sapiens) (UniProt P21728). The experiment in a line: Potentiators of Human D1 Dopamine Receptor: qHTS. Further: 0% is about no effect. The settings on record: HEK293 TREx D1 cells, calcium flux, dopamine EC20 potentiation; at 10 µM; hits give high values. From the text: Dopamine receptors (DARs) are involved in the etiology and/or therapy of a number of neuropsychiatric and endocrine disorders. For instance, all receptor-based antiparkinsonian drugs work via stimulating the D1 DAR subtype whereas all FDA-approved antipsychotic agents are antagonists of this receptor. […] There are three different types of allosteric modulators that we are seeking, two of which will stimulate or augment receptor signaling, allosteric agonists and potentiators, while the third, allosteric antagonists, will attenuate receptor signaling. The present primary screening assay measures compound potentiation of an EC20 dopamine response by tracking calcium flux in a […], inducible Hek293 Trex D1 cell line.
NIH Chemical Genomics Center [NCGC]
NIH Molecular Libraries Probe Centers Network [MLPCN]
Assay Submitter (PI): David Sibley
Freshly passaged cells are plated in 1536 well black, clear bottom plates at a density of 4000 cells/well in 3 ul of complete media containing 1x tetracycline inducer. After an overnight incubation at 30 C in 5% CO2, cells are loaded with 2 ul of the no wash Calcium Assay Kit (ABD Bioquest) and incubated at room temperature for 30 to 90 minutes. A 10 cycle (1 second/cycle) baseline measurement is taken and then the FDSS online 1536 pintool delivers 23 nl of compound library (as well as dopamine controls) to the plate. The plate is measured for kinetically at 1 cycle/sec for 180 seconds and is considered to be the agonist portion of the assay (eg, compounds which activate a positive calcium response during this portion are flagged as potential agonists). Following the 180 second read, 1 ul of an EC20 of dopamine is delivered by an onboard pipette head. Measurements are taken kinetically for an additional 180 seconds.
Consider `O=C(NCC1(N2CCCCC2)CCCCC1)c1cc([N+](=O)[O-])ccc1Cl`, for which the potentiation was inactive: -3.15%.

`CN1[C@@H]2CC[C@H]1CC(OC(=O)C(O)(c1ccccc1)c1ccccc1)C2` (some centres undefined): the potentiation is inactive: -4.15%.

For `CC(C)N1C(=O)CC2(CCN(CCOC(=O)C(O)(c3ccccc3)c3ccccc3)CC2)C1=O`, the potentiation was inactive: 10.6%.

Regarding `COc1cc(SC)ccc1C(=O)NCC1(N(C)C)CCCCC1`, the potentiation is inactive: -10.2%.

On to `CCN(CC)CC(C)C(C)OC(=O)C(O)(c1ccccc1)c1ccccc1` (centres undefined), for which the potentiation was inactive: -5%.

For the compound `CN(C)C1(CNC(=O)c2cccc(Cl)c2)CCCCC1`, the potentiation was inactive: 0.75%.

Consider `CN(C)C1(CNC(=O)c2ccccc2F)CCCCC1`, for which the potentiation was inactive: 1.25%.

For the compound `Cc1ccc(C(=O)NCC2(N3CCCCC3)CCCCC2)cc1`, the potentiation was inactive: -3.15%.

For `CN(C)C1CCCC1OC(=O)C(O)(c1ccccc1)c1ccccc1` (centres undefined), the potentiation was inactive: -3.35%.

For the compound `CN(C)c1ccc(C(=O)NCC2(N(C)C)CCCCC2)cc1`, the potentiation was inactive: 1.05%.

Take `CN(C)C1(CNC(=O)c2ccccc2[N+](=O)[O-])CCCCC1`: the potentiation is inactive: 0.25%.

On to `Cc1ccccc1C(=O)NCC1(N2CCCCC2)CCCCC1`, for which the potentiation is inactive: -0.75%.

As for `CCCCOc1ccccc1C(=O)NCC1(N(C)C)CCCCC1`, the potentiation is inactive: -0.05%.

For the compound `O=C(NCC1(N2CCCCC2)CCCCC1)c1cc(F)c(F)cc1Cl`, the potentiation is inactive: -2.6%.

In the case of `C=CCN1CCN(CCOC(=O)C(O)(c2ccccc2)c2ccccc2)CC1`, the potentiation was inactive: -1.9%.

For `O=C(NCC1(N2CCCCC2)CCCCC1)c1cccc(Br)c1`, the potentiation was inactive: -2.55%.

Consider `Cc1cc(C(=O)NCC2(N3CCCCC3)CCCCC2)ccc1[N+](=O)[O-]`, for which the potentiation is inactive: 1.95%.

In the case of `CCN1CCCC(OC(=O)C2(O)c3ccccc3C=Cc3ccccc32)C1` (centres undefined), the potentiation was inactive: -2.8%.

With `CCOc1cccc(C(=O)NCC2(N(C)C)CCCCC2)c1`, the potentiation was inactive: -0.15%.

Regarding `COc1ccc(C(=O)NCC2(N(C)C)CCCCC2)cc1`, the potentiation is inactive: -6.05%.

In the case of `CN(C)C1(CNC(=O)c2ccc(Br)cc2)CCCCC1`, the potentiation was inactive: -1.7%.

`COc1cc(C(=O)NCC2(N(C)C)CCCCC2)c([N+](=O)[O-])cc1OC`: the potentiation is inactive: -1.55%.

Turning to `COc1ccc(C(=O)NCC2(N(C)C)CCCCC2)cc1Cl`, the potentiation is inactive: 0.2%.

For `COc1ccc(Cl)cc1C(=O)NCC1(N(C)C)CCCCC1`, the potentiation was inactive: 7.2%.

Turning to `COc1cccc(C(=O)NCC2(N3CCCCC3)CCCCC2)c1`, the potentiation is inactive: -5.24%.

Consider `O=C(NCC1(N2CCCCC2)CCCCC1)c1cccc(Cl)c1`, for which the potentiation was inactive: -2.4%.

As to `O=C(OC1CN2CCC1CC2)C(CO)(c1ccccc1)c1ccccc1` (centres undefined), the potentiation was inactive: 4.35%.

On to `COc1cccc(C(=O)NCC2(N3CCOCC3)CCCCC2)c1`, for which the potentiation was inactive: 2.6%.

For `CC(C)COc1ccc(C(=O)NCC2(N(C)C)CCCCC2)cc1`, the potentiation was inactive: -0.55%.

`COc1ccc(Br)c(C(=O)NCC2(N3CCCCC3)CCCCC2)c1`: the potentiation is inactive: -0.15%.

As for `Cc1cccc(C(=O)NCC2(N(C)C)CCCCC2)c1`, the potentiation was inactive: 0.7%.

For `COc1cc(C(=O)NCC2(N(C)C)CCCCC2)cc(OC)c1OC`, the potentiation is inactive: 1.5%.

As for `CN(C)c1cccc(C(=O)NCC2(N(C)C)CCCCC2)c1`, the potentiation is inactive: -3.45%.

With `CC(C)Oc1ccc(C(=O)NCC2(N(C)C)CCCCC2)cc1`, the potentiation was inactive: -1% and inactive: -3.5%.
